Molecular target: streptavidin immobilized on membrane (streptavidin modified membrane prepared according to FIG. 10) (Streptomyces avidinii) (UniProt P22629)
Experiment: depletion from solution; 0.0055 mL streptavidin membrane incubated in 0.4 mL of 1 mg/mL biotin-conjugate for 24 hours

Amino acid sequences for entries named in this document (tags omitted). Residues count along the entry.
UniProt P22629, 37-163 limits assumed: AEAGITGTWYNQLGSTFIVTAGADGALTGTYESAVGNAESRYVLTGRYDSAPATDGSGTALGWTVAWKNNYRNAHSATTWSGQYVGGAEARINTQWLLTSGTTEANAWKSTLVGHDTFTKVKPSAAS

Q: “biotin-Protein A (from UniProt P38507 37-477)” was tested. Which Amount Immobilized (mg biotin-conjugate/mL membrane) (mg biotin-conjugate/mL membrane) did it give?
A: 9.7
